This is an account of results in PubChem BioAssay AID1996.

Values after ≈ are worked out from the molar mass of the structure shown.

The conditions of this data set: buffer; pH 7.4; 200.0 µM.
What is called kinetic solubility is the concentration staying in solution when a stock, usually in DMSO, is diluted into the medium. Consider `CCN1CCC(Nc2ccc(Cl)cc2)CC1`, for which the solubility (kinetic) stood at 25.5 µg/mL (≈ 107 µM). The value for `O=C(NCC1(N2CCCCC2)CCCCC1)c1cccs1` was > 46 µg/mL. The figure for `CC(C)(C)OC(=O)N1CCC(Nc2ccccc2)CC1` is 35.2 µg/mL (≈ 127 µM); for `CN(C)c1ccc(C(=O)NCC2(N3CCCCC3)CCCCC2)cc1` it is > 51.5 µg/mL; for `COc1cc(OC)cc(C(=O)NCC2(N3CCOCC3)CCCCC2)c1` it is 45.9 µg/mL (≈ 127 µM).

`CN(C)C1(CNC(=O)c2cccc(C#N)c2)CCCCC1` gave a kinetic solubility of 40.6 µg/mL (≈ 142 µM). As for `O=C(NCC1(N2CCOCC2)CCCCC1)c1cc(F)c(F)cc1Cl`, the kinetic solubility is > 55.9 µg/mL. The value for `CN1CCC(Nc2ccc(Cl)cc2)CC1` was 30.6 µg/mL (≈ 136 µM); that for `CN1CCC(Nc2ccc(F)c(Cl)c2)CC1` was > 36.4 µg/mL. The figure for `O=C(NCC1(N2CCCCC2)CCCCC1)c1ccc(=O)[nH]c1` is > 47.6 µg/mL. The value for `COc1cc(C(=O)NCC2(N3CCOCC3)CCCCC2)cc(OC)c1C` was 5.8 µg/mL (≈ 15.4 µM).

In the case of `CCCOc1ccc(C(=O)NCC2(N(C)C)CCCCC2)cc1OC`, the solubility (kinetic) was > 52.3 µg/mL. As to `CCCOc1ccc(C(=O)NCC2(N(C)C)CCCCC2)cc1`, the solubility (kinetic) is > 47.8 µg/mL.

Regarding `O=C(NCC1(N2CCCCC2)CCCCC1)c1ccc(F)cc1`, the kinetic solubility is > 47.8 µg/mL. The figure for `CCOC(=O)N1CCC(Nc2cccc(C)c2)CC1` is 29.9 µg/mL (≈ 114 µM); for `N#CC1(Nc2ccccc2)CCN(Cc2ccccc2)CC1` it is 39.7 µg/mL (≈ 136 µM); for `CCOC(=O)N1CCC(Nc2ccc(C)cc2)CC1` it is > 39.4 µg/mL.

The compound `CCOC(=O)N1CCC(Nc2ccc(F)cc2)CC1` had a solubility (kinetic) of 36.3 µg/mL (≈ 136 µM). The value for `O=C(NCC1(N2CCCCC2)CCCCC1)c1cccc([N+](=O)[O-])c1` was > 51.8 µg/mL; that for `O=C(NCC1(N2CCCCC2)CCCCC1)c1ccco1` was > 43.6 µg/mL. The figure for `CC(C)c1ccc(NC2CCN(C(=O)OC(C)(C)C)CC2)cc1` is 4.4 µg/mL (≈ 13.8 µM).

On to `CCCN1CCC(Nc2cc(OC)cc(OC)c2)CC1`, for which the kinetic solubility was > 41.8 µg/mL.
